By UniProt entry, the sequences of proteins in these tests, tags left out.
UniProt P06239, whole entry: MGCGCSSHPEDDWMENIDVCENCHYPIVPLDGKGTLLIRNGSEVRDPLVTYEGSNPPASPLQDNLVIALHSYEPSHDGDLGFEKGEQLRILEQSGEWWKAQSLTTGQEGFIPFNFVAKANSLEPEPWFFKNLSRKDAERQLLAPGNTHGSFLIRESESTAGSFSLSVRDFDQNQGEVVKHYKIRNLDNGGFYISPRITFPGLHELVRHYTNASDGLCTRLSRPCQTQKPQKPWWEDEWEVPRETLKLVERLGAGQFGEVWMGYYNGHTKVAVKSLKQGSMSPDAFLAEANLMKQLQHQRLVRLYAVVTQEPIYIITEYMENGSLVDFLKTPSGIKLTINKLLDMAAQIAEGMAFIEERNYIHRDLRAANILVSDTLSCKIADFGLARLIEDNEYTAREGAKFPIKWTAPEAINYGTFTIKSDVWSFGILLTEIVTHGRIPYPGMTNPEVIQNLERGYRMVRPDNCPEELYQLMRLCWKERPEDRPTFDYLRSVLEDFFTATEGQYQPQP

In patent US6642227B2, “Inhibitors of c-Jun N-terminal kinases (JNK) and other protein kinases” (Vertex Pharmaceuticals Incorporated, priority 2001, dated 2003):

Target: human Lck kinase (UniProt P06239)
Assay: Lck inhibition assay (A: radioactivity-based or B: spectrophotometric coupled-enzyme assay)
Details: read-out: Lck Activity (Ki rating)
Procedure: The compounds were evaluated as inhibitors of human Lck kinase using either a radioactivity-based assay or spectrophotometric assay.
The compounds were assayed as inhibitors of full length bovine thymus Lck kinase (from Upstate Biotechnology, cat. no. 14-106) expressed and purified from baculo viral cells. Lck kinase activity was monitored by following the incorporation of ^33p from ATP into the tyrosine of a random poly Glu-Tyr polymer substrate of composition, Glu:Tyr=4:1 (Sigma, cat. no. P-0275). The following were the final concentrations of the assay components: 0.025 M HEPES, pH 7.6, 10 mM MgCl2, 2 mM DTT, 0.25 mg/ml BSA, 10 μM ATP (1-2 μCi ^33P-ATP per reaction), 5 mg/ml poly Glu-Tyr, and 1-2 units of recombinant human […] kinase. In a typical assay, all the reaction components with the exception of ATP were pre-mixed and aliquoted into assay plate wells. Inhibitors dissolved in DMSO were added to the wells to give a final DMSO concentration of 2.5%. The assay plate was incubated at 30 C. for 10 min before initiating the reaction with ^33P-ATP. After 20 min of reaction, the reactions were quenched with 150 μl of 10% trichloroacetic acid (TCA) containing 20 mM Na3PO4. The quenched samples were then transferred to a 96-well filter plate (Whatman, UNI-Filter GF/F Glass Fiber Filter, cat no. 7700-3310) installed on a filter plate vacuum manifold. Filter plates were washed four times with 10% TCA containing 20 mM Na3PO4 and then 4 times with methanol. 200 μl of scintillation fluid was then added to each well. The plates were sealed and the amount of radioactivity associated with the filters was quantified on a TopCount scintillation counter. The radioactivity incorporated was plotted as a function of the inhibitor concentration. The data was fitted to a competitive inhibition kinetics model to get the Ki for the compound.
The ADP produced from ATP by the human recombinant Lck kinase-catalyzed phosphorylation of poly Glu-Tyr substrate was quanitified using a coupled enzyme assay (Fox et al (1998) Protein Sci 7, 2249). In this assay one molecule of NADH is oxidised to NAD for every molecule of ADP produced in the kinase reaction. The disappearance of NADH can be conveniently followed at 340 nm.
The following were the final concentrations of the assay components: 0.025 M HEPES, pH 7.6, 10 mM MgCl2, 2 mM DTT, 5 mg/ml poly Glu-Tyr, and 50 nM of recombinant human Lck kinase. Final concentrations of the components of the coupled enzyme system were 2.5 mM phosphoenolpyruvate, 200 μM NADH, 30 μg/ml pyruvate kinase and 10 μg/ml lactate dehydrogenase.
In a typical assay, all the reaction components with the exception of ATP were pre-mixed and aliquoted into assay plate wells. Inhibitors dissolved in DMSO were added to the wells to give a final DMSO concentration of 2.5%. The assay plate was incubated at 30° C. for 10 min before initiating the reaction with 150 μM ATP. The absorbance change at 340 nm with time, the rate of the reaction, was monitored on a molecular devices plate reader. The data of rate as a function of the inhibitor concentration was fitted to competitive inhibition kinetics model to get the Ki for the compound.

Row | Ki | SMILES
1 | < 100 nM | CSc1sc(-c2nc(Nc3cccc(O)c3)ncc2C)c(-c2ccccc2C(F)(F)F)c1C#N
2 | > 1000 nM | CSc1sc(-c2nc(Nc3cccc(OCc4ccccc4)c3)ncc2C)c(-c2cccc(-c3ccccc3)c2)c1C#N
3 | < 100 nM | CSc1sc(-c2nc(Nc3cccc(Br)c3)ncc2C)c(-c2cccnc2)c1C#N
4 | 100 to 1000 nM | CSc1sc(-c2nc(Nc3ccccc3)ncc2C)c(-c2cccnc2)c1C#N
5 | < 100 nM | CCOc1sc(-c2ccnc(Nc3ccccc3)n2)c(-c2ccccc2)c1C#N
6 | > 1000 nM | CN(C)c1sc(-c2ccnc(Nc3cccc([N+](=O)[O-])c3)n2)c(-c2cccc(OCc3ccccc3)c2)c1C#N
7 | 100 to 1000 nM | COc1cccc(Nc2ncc(C)c(-c3sc(SC)c(C#N)c3-c3cccnc3)n2)c1
8 | 100 to 1000 nM | CSc1sc(-c2nc(Nc3cccnc3)ncc2C)c(-c2ccc(C)cc2)c1C#N
9 | < 100 nM | N#Cc1c(NCCN2CCOCC2)sc(-c2ccnc(Nc3cccc(S(N)(=O)=O)c3)n2)c1-c1ccccc1
10 | < 100 nM | CSc1sc(-c2ccnc(Nc3cccc(N)c3)n2)c(-c2cccc(Br)c2)c1C#N
11 | > 1000 nM | CN(C)c1sc(-c2ccnc(Nc3cccc(O)c3)n2)c(-c2cncc(-c3ccccc3)c2)c1C#N
12 | < 100 nM | Cc1cnc(Nc2ccccc2)nc1-c1sc(SCc2ccc(O)cc2)c(C#N)c1-c1cccc(Cl)c1 [Compound V-1, 4-(3-chloro-phenyl)-2-(4-hydroxy-benzylsulfanyl)-5-(5-methyl-2-phenylamino-pyrimidin-4-yl)-thiophene-3-carbonitrile]
13 | < 100 nM | CSc1sc(-c2nc(Nc3cccc(O)c3)ncc2C)c(-c2ccc(C)cc2)c1C#N
14 | < 100 nM | CSc1sc(-c2ccnc(Nc3cccc(O)c3)n2)c(-c2cccnc2)c1C#N
15 | > 1000 nM | CSc1sc(-c2ccnc(Nc3ccccc3)n2)c(-c2cccc(OCc3ccccc3)c2)c1C#N
16 | < 100 nM | CSc1sc(-c2ccnc(Nc3cccc(O)c3)n2)c(-c2cccc(Oc3ccccc3)c2)c1C#N
17 | > 1000 nM | CSc1sc(-c2ccnc(Nc3ccc(OCc4ccccc4)cc3)n2)c(-c2ccccc2)c1C#N
18 | < 100 nM | CCOc1sc(-c2nc(Nc3cccc(OCc4ccccc4)c3)ncc2C)c(-c2ccccc2)c1C#N
19 | < 100 nM | CSc1sc(-c2nc(Nc3cccnc3)ncc2C)c(-c2ccco2)c1C#N

Row | Ki | SMILES
20 | > 1000 nM | CSc1sc(-c2ccnc(Nc3cccc(O)c3)n2)c(-c2cncc(-c3ccccc3)c2)c1C#N
21 | < 100 nM | CSc1sc(-c2nc(Nc3cccc(OCc4ccccc4)c3)ncc2C)c(-c2ccco2)c1C#N
22 | > 1000 nM | CSc1sc(-c2ccnc(Nc3cccc(OCc4ccccc4)c3)n2)c(-c2cncc(Br)c2)c1C#N
23 | > 1000 nM | CSc1sc(-c2ccnc(Nc3cccc(OCc4ccccc4)c3)n2)c(-c2cccnc2)c1C#N
24 | < 100 nM | CSc1sc(-c2ccnc(Nc3cccc([N+](=O)[O-])c3)n2)c(-c2cccc(O)c2)c1C#N
25 | > 1000 nM | CN(C)c1sc(-c2ccnc(Nc3ccccc3)n2)c(-c2cccc(OCc3ccccc3)c2)c1C#N
26 | < 100 nM | COc1cc(Nc2ncc(C)c(-c3sc(SC)c(C#N)c3-c3cccnc3)n2)cc(OC)c1
27 | < 100 nM | CSc1sc(-c2nc(Nc3cccc(O)c3)ncc2C)c(-c2ccco2)c1C#N
28 | 100 to 1000 nM | CSc1sc(-c2ccnc(Nc3cccc(O)c3)n2)c(-c2cccc(OCc3ccccc3)c2)c1C#N
29 | < 100 nM | CSc1sc(-c2ccnc(Nc3cccc(O)c3)n2)c(-c2cccc(-c3ccccc3O)c2)c1C#N
30 | > 1000 nM | CCOC(=O)c1c(SC)sc(-c2ccnc(Nc3ccccc3)n2)c1-c1ccccc1
31 | < 100 nM | CSc1sc(-c2nc(Nc3cccc(O)c3)ncc2C)c(-c2cccc(-c3ccccc3)c2)c1C#N
32 | > 1000 nM | CN(C)c1sc(-c2ccnc(Nc3cccc(OCc4ccccc4)c3)n2)c(-c2cncc(-c3ccccc3)c2)c1C#N
33 | < 100 nM | CSc1sc(-c2nc(Nc3cccc(O)c3)ncc2C)c(-c2ccccc2)c1C#N
34 | < 100 nM | CCNc1sc(-c2ccnc(Nc3ccc(O)cc3)n2)c(-c2ccccc2)c1C#N
35 | < 100 nM | CSc1sc(-c2ccnc(Nc3ccccc3)n2)c(C2CCCCC2)c1C#N
36 | 100 to 1000 nM | CCOC(=O)c1ccc(Nc2nccc(-c3sc(SC)c(C#N)c3C3CCCCC3)n2)cc1
37 | < 100 nM | CSc1sc(-c2ccnc(Nc3cccc(N)c3)n2)c(-c2cccc(Oc3ccccc3)c2)c1C#N
38 | < 100 nM | CSc1sc(-c2ccnc(Nc3cccc(OCc4ccccc4)c3)n2)c(C2CCCCC2)c1C#N

Row | Ki | SMILES
39 | 100 to 1000 nM | CSc1sc(-c2nc(Nc3cccc(OCc4ccccc4)c3)ncc2C)c(-c2ccc(C)cc2)c1C#N
40 | < 100 nM | CC1CCN(c2sc(-c3ccnc(Nc4ccccc4)n3)c(-c3cccc(Oc4ccccc4)c3)c2C#N)CC1
41 | < 100 nM | CN(C)c1sc(-c2ccnc(Nc3cccc(N)c3)n2)c(-c2cccc(Oc3ccccc3)c2)c1C#N
42 | > 1000 nM | CSc1sc(-c2nc(Nc3ccc(Cl)nc3)ncc2C)c(-c2cccnc2)c1C#N
43 | < 100 nM | N#Cc1c(NCCN2CCOCC2)sc(-c2ccnc(Nc3ccc(O)cc3)n2)c1-c1ccccc1
44 | < 100 nM | N#Cc1c(NCCN2CCOCC2)sc(-c2ccnc(Nc3cccc(O)c3)n2)c1-c1ccccc1
45 | < 100 nM | CSc1sc(-c2ccnc(Nc3cccc(O)c3)n2)c(-c2cccc(O)c2)c1C#N
46 | < 100 nM | Cc1cnc(Nc2cccc(OCc3ccccc3)c2)nc1-c1sc(O)c(C#N)c1-c1ccccc1
47 | < 100 nM | CN(C)c1sc(-c2ccnc(Nc3cccc(OCc4ccccc4)c3)n2)c(-c2cncc(Br)c2)c1C#N
48 | > 1000 nM | CSc1sc(-c2nc(NCc3ccccc3)ncc2C)c(-c2cccnc2)c1C#N
49 | < 100 nM | CCNc1sc(-c2ccnc(Nc3cccc(O)c3)n2)c(-c2ccccc2)c1C#N
50 | < 100 nM | CSc1sc(-c2nc(Nc3cccc([N+](=O)[O-])c3)ncc2C)c(-c2ccco2)c1C#N
51 | < 100 nM | COC(=O)c1cccc(Nc2ncc(C)c(-c3sc(SC)c(C#N)c3-c3cccnc3)n2)c1
52 | 100 to 1000 nM | CCOC(=O)c1c(SC)sc(-c2ccnc(Nc3cccc(O)c3)n2)c1-c1ccccc1
53 | > 1000 nM | CSc1sc(-c2ccnc(Nc3cccc([N+](=O)[O-])c3)n2)c(-c2cccc(OCc3ccccc3)c2)c1C#N
54 | < 100 nM | Cc1ccc(-c2c(-c3ccnc(Nc4ccccc4)n3)sc(O)c2C#N)cc1
55 | > 1000 nM | CSc1sc(-c2ccnc(Nc3cccc(OCc4ccccc4)c3)n2)c(-c2cncc(-c3ccccc3)c2)c1C#N
56 | < 100 nM | CSc1sc(-c2ccnc(Nc3cccc(S(N)(=O)=O)c3)n2)c(-c2cccnc2)c1C#N
